Literature values in publication PMC6155625 (Molecules : A Journal of Synthetic Chemistry and Natural …, 2017).

System: CYP1A1
Details: ref 12 (Schwarz et al.); cited from earlier work

Substance: Hyperforin [HF]
- type of inhibition of CYP1A1: competitive inhibitor
